This data set in a line: Toxicokinetics test in the satellite groups (UPLC-MS/MS of rat plasma). It is filed as in vivo. Particulars: rats after oral TAZF; detection limit. On the procedure: SD rats (5 ~ 6 weeks, 3/group/sex) were randomly allocated to three treatment groups and given the same dosage as those in the repeated toxicity experiment for 28 days. […] Carbamazepine was chosen as the internal standard (IS). The blood samples were centrifuged to obtain plasma. Then, 300 μL of acetonitrile containing 40 ng of IS was added to 100 μL of plasma. After vortexing for 1 min, the mixture was centrifuged at 17,000 rpm for 15 min at 4 °C. The supernatant of each sample was injected into a UPLC–MS/MS system for determination. The injection volume was 1 μL. UPLC–MS analysis was performed on a Thermo Fisher Scientific Ultimate 3000 UPLC system (San Jose, USA) and an API 4000 QTRAP mass spectrometer (Foster City, USA) equipped with an ESI source. The mobile phase consisted of 2 solvents: (A) water containing 0.1% formic acid and (B) 100% acetonitrile. For MS, multiple reaction monitoring (MRM) in positive ion mode was used as the scanning mode for the main components and IS in the plasma samples. The dwell time (DT), collision energy (CE), quadrupole 1 pre-rod bias (Q1) and quadrupole 3 pre-rod bias (Q3) are listed in Table 3.

On to evodiamine, for which the Level in plasma is below 0.5 ng/mL.
